Measurements taken from publication PMC4249368 (Antimicrobial Agents and Chemotherapy, 2014).

What was measured:
[1] = tested on: MSSA ATCC 25923; conditions: Table S1, MHB without serum, Corning NonTC microtitre plates (CLS3370)
Protocol: MSSA ATCC 25923 was purchased from the American Type Culture Collection (Manassas, VA). Mueller-Hinton broth (MHB; Bacto Laboratories Pty. Ltd.) was used to grow MSSA for determination of in vitro antibacterial activity in the presence and absence of 50% human serum (Life Technologies Australia, Melbourne, Australia) and time-kill assays. Luria-Bertani (LB) medium (Difco) and MHB adjusted with Ca^2+ (25 mg/liter) and Mg^2+ (12.5 mg/liter) (CA-MHB) were used for bacterial growth in the membrane depolarization assay and TEM, respectively. The phospholipids used for SPR analysis, 1-palmitoyl-2-oleoyl-sn-glycero-3-phosphoglycerol (POPG), 1-palmitoyl-2-oleoyl-sn-glycero-3-phosphocholine (POPC), and 1-palmitoyl-2-oleoyl-sn-glycero-3-phosphoethanolamine (POPE), were purchased from Auspep Pty. Ltd. (Melbourne, Australia).
(§1) MICs against MSSA ATCC 25923 were measured by broth microdilution according to the Clinical and Laboratory Standards Institute (CLSI) M7-A7 methodology ([30]). Briefly, serial 2-fold dilutions of each antibiotic were added into Costar nontreated polystyrene 96-well plates, and each well was inoculated with 50 μl of MSSA in MHB to a final concentration of approximately 5 × 10^5 CFU/ml. […] The dilution representing the MIC and two of the more and less concentrated dilutions were plated out onto Trypticase soy agar plates and enumerated to determine viable CFU/ml ([31]).

[2] = tested on: MSSA ATCC 25923; conditions: MBC higher than MIC
Protocol: as §1, with “([31]). […]” for “([31]).”
25923 in MHB media in the presence and absence of Human serum (10% and 50%) in
Corning NonTC microtitre plates (CLS3370)
a The MBCs were determined by plating out the clear wells onto an agar plate and were incubated at
37°C overnight. Each colony represents one viable bacterium. […]

[3] = rats, 20-mg/kg i.v., agar dilution method; cited from earlier work

## ramoplanin
[1]
  MIC, MHB: 2 µg/mL
[2]
  MBC relative to MIC: 2 fold
[3]
  C12: 2 µg/mL
